Assay results from paper PMC6585789 (American Journal of Hematology, 2017).

Tested on: FLT3‐ITD–mutated AML
Experiment: Efficacy assessments: relapse, survival, treatment duration and disposition
Format: in vivo, human

CC(C)(C)c1cc(NC(=O)Nc2ccc(-c3cn4c(n3)sc3cc(OCCN5CCOCC5)ccc34)cc2)no1.Cl.Cl [quizartinib, N‐(5‐tert‐butyl‐isoxazol‐3‐yl)‐N′‐{4‐[7‐(2‐morpholin‐4‐yl‐ethoxy)imidazo[2,1‐b][1, 3]benzothiazol‐2‐yl]phenyl}urea dihydrochloride]
Difference in OS between treatment groups (40 mg/d vs 60 mg/d): no significant difference | Subjects alive at end of study (13 subjects): 77% | Subjects surviving >2 years (104 weeks) (13 subjects): 31% | Subjects surviving ≥50 weeks (13 subjects): 69% | Subjects who discontinued due to disease progression (13 subjects): 8% | Subjects who had died at the end of the study (13 subjects, 1 disease progression, 1 peritoneal hemorrhage, 1 unknown causes): 3 | Subjects with relapse (13 subjects, relapse in the first cycle): 8% | Outcome of transplant: Continued CR (starting dose 40 mg, N = 7): 6 n | Outcome of transplant: Relapse (starting dose 40 mg, N = 7): 1 n | Outcome of transplant: Continued CR (starting dose 60 mg, N = 6): 6 n | Outcome of transplant: Continued CR (total N = 13): 12 (92) n (%) | Outcome of transplant: Relapse (total N = 13): 1 (8) n (%)
